Results as given in publication PMC10485003, “Antibiotic hyper-resistance in a class I aminoacyl-tRNA synthetase with altered active site signature motif” (Nature Communications, 2023).

Tests used:
[1] = biological target: T1, mut-GVHH TtIleRS2 (Thermus thermophilus, UniProt P56690, G56H/H54G); format: biochemical; settings: MUT/WT TtIleRS2; Repl1-Repl3; towards Ile
T1 construct: hexa-histidine tag (pET28b(+)) (N); made in house; host or cells: E. coli Rosetta2 (DE3)
T1 sequence (P56690 1-1043 H54G/G56H): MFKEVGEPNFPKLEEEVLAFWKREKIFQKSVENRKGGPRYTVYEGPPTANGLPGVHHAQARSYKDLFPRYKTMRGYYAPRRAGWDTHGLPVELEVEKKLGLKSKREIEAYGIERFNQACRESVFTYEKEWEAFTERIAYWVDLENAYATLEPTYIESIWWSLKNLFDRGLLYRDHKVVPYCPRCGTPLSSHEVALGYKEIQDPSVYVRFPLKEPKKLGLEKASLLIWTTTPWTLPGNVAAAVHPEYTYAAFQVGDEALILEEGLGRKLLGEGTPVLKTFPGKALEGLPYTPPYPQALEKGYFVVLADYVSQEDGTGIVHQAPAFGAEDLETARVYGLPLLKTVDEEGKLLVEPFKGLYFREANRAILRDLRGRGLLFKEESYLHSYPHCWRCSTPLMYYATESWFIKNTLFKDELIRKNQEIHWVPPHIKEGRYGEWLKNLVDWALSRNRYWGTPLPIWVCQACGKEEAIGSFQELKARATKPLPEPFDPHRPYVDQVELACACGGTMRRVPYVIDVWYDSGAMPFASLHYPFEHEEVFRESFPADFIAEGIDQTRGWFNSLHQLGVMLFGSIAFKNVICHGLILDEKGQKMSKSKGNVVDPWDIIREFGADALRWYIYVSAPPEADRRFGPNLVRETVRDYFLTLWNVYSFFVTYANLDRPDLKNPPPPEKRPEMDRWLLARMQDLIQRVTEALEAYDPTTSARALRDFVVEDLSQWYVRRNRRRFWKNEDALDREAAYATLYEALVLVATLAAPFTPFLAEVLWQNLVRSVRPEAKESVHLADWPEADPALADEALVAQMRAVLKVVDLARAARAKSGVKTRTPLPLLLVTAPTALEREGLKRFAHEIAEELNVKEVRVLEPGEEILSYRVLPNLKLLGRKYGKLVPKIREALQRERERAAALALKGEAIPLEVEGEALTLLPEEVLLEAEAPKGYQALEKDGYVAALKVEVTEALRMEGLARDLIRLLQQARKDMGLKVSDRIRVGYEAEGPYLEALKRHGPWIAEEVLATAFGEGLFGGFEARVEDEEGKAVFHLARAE
Procedure: (§1) L-Ile and ATP concentrations ranged from 1/10 KM to 10 KM values. When measuring the KI towards one of the substrates, the other was held in saturation (concentrations at least 10 KM). The aliquots of the reaction mixture (1–2.5 μl) were quenched in 2 volumes of 500 mM NaOAc pH = 4.5, 0.1% SDS, and formed ^32P-ATP was separated from the remaining ^32P-PPi by thin-layer chromatography on Polygram CEL 300 PEI UV254 TLC plates (Macherey-Nagel, cat: 801063) using 750 mM KH2PO4 pH=3.5, 4 M urea buffer. Visualization and quantification of the signals was performed using a Typhoon Phosphoimager 5 (General Electric) and accompanying ImageQuant™ TL software (SV: 10.2). The kinetic constants were determined using a global fit option of the competitive inhibition model of GraphPad Prism 6 software (SV: 6.01). All experiments were performed in triplicates. The kcat was determined by dividing the maximal velocity, VM, with the used enzyme concentration. […]
(§2) variable substrate (ATP or Ile) was varied in the range of 0.1 KM to 10 KM. The other substrate (Ile or ATP) was kept in excess at 5 to 10 KM. Data were globally fitted to the competitive inhibition model using GraphPad prism 6.01 for Windows software. The values represent the average value ± SD of three independent experiments. Source data are provided as a Source Data file.
(§3) (1 picture or pasted object on this page, not shown here)

[2] = biological target: T2, mut-HVGH DrIleRS2 (Deinococcus radiodurans, UniProt Q9RUP8, A59H/H61G/L60V); format: biochemical; settings: towards Ile
T2 construct: hexa-histidine tag (pET28b(+)) (N); made in house; host or cells: E. coli BL21(DE3)
T2 sequence (Q9RUP8 1-1078 A59H/L60V/H61G): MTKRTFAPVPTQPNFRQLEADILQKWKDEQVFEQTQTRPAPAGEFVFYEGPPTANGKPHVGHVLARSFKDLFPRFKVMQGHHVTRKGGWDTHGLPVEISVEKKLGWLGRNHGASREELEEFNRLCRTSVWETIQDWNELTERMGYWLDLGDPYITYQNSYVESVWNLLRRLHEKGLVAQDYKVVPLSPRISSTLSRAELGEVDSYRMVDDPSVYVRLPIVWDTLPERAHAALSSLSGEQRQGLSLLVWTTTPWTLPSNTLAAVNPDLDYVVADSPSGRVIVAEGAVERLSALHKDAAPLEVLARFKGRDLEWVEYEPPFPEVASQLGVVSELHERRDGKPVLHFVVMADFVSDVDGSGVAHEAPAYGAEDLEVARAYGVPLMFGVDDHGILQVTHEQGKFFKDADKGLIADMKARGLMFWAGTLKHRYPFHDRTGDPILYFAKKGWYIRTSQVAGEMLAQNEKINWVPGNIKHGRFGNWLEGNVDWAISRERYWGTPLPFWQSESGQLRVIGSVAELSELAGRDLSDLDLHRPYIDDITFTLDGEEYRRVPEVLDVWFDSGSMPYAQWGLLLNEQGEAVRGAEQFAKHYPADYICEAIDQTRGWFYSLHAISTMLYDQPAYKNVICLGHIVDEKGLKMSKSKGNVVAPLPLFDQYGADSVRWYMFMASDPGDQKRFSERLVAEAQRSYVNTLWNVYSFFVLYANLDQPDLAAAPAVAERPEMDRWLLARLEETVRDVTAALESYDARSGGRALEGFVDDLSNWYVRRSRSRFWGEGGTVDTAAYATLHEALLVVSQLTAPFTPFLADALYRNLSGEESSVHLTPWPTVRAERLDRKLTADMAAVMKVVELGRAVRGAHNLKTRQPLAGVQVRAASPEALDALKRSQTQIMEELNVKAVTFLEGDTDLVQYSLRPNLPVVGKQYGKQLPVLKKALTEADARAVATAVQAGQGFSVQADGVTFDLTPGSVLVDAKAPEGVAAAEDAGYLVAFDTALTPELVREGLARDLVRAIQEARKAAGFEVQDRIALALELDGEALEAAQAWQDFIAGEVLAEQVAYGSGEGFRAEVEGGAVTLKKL
Procedure: as §1, §2, §3

## C/C(=C\C(=O)OCCCCCCCCC(=O)O)C[C@@H]1OC[C@H](C[C@@H]2O[C@H]2[C@@H](C)[C@H](C)O)[C@@H](O)[C@H]1O [mupirocin]
[1]
  FOLD Change of KI, single replicates: 179 and 175 and 180
[2]; WT/MUT DrIleRS2, Repl1-Repl3
  FOLD Change of KI, single replicates: 832 and 931 and 707
[2]; wt-ALHH to mut-HVGH DrIleRS2, activation step, average of three experiments
  Fold change (decrease) in Ki for mupirocin, mupirocin resistance: 823 fold

Values joined by “and” are separate entries in the source; they are usually repeats but may differ in a detail not shown here. Identical values can stand only once.
